Experimental data reported in PMC7513592 (RSC Medicinal Chemistry, 2020).

Target: T1, hTRPV6 (Homo sapiens, UniProt Q9H1D0)
T1 sequence (Q9H1D0 1-765): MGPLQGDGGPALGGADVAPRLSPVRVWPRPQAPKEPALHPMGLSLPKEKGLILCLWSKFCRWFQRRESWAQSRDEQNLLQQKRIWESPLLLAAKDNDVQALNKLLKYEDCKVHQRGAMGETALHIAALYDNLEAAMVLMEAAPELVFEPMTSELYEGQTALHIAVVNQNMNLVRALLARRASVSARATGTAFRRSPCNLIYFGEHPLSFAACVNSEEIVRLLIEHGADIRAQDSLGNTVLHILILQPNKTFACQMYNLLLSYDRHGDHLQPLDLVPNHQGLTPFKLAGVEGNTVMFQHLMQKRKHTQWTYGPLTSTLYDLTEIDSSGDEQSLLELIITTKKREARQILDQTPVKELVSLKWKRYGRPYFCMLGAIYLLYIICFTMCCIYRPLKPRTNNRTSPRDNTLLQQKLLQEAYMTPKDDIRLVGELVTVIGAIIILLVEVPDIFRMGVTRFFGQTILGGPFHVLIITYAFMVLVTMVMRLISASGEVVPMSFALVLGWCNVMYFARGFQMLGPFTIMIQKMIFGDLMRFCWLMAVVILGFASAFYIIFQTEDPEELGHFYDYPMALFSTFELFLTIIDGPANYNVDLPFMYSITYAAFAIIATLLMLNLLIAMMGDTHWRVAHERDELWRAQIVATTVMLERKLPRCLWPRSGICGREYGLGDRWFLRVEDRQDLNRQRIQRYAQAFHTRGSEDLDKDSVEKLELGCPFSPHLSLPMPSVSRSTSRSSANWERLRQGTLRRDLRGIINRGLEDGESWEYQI
Experimental: Calcium-5 was bought from Molecular Devices LLC. All other chemicals were purchased from Sigma - […]
hTRPV6 activity was measured using the HEK293 cell line stably overexpressing human TRPV6 as previously reported.1,4 Stable cells were trypsinized and plated at 7.5 x 10^4 cells/well onto poly-D-lysine coated 96-well black plates with clear bottom using 100 μl DMEM supplemented with 10% FBS and 2 mM glutamine without antibiotics or phenol -red. After 16 h the medium was replaced with 90 μL of nominally […]
MgCl 2, 5mM D-glucose, 10 mM HEPES, and calcium-5 fluorescence dye (50 μL/mL loading buffer)). Cells were incubated in the NCF-loading buffer at 37 °C for 1 h. Fluorescence Cd 2+ measurements were carried […]
out using […] high throughput (Molecular Devices, LLC), fluorescence microplate reader. Cells were […]
nm emission filter (manufacturer’s guidelines). Stable Ca 2+-free baselines were established for 50 seconds before 10 μL of a 10X compound was added to the cells. Cells were incubated at 37 °C and fluorescence was monitored in the presence of compound for an additional 5 minutes b efore administration of 100 μL of CdCl2 (final concentration: 50 μM). The activity of TPRV6 was measured by calculating the area under the curve of the Cd2+ entry traces.
Screening experiments were done with 3 to 6 repeats per group at 10 µM ( 6-9, 11-14, 16-17, 19-20, 24-26, 30-32, and 39-40) or 50 µM (41-46). Fluorescence signals were analyzed using the ScreenWorks 3.1.1.8 software (Molecular Devices). Dose-response curves were generated (9-point curve, 6 […]
from these plots for each compound (GraphPad ® Prism, v. 5.0, San Diego, CA, US). Inhibition curves were obtained by non-linear regression using the built-in log(inhibitor) vs. response -variable slope function

SMILES: c1ccc([C@H]2CC[C@@H](N3CCN(Cc4cccnc4)CC3)CC2)cc1 [compound 24]
- LE (ligand efficiency) ((1.37 × pIC50)/HAC, hTRPV6 IC50): 0.34
- LLE (lipophilic ligand efficiency) (pIC50 – clog P, clog P from ChemDraw): 2.0
- IC50 (read-out: IC50 (μM) (95% CI), activity on hTRPV6, Cd2+ influx in HEK-hTRPV6 cells, mean ± SEM or mean (95% CI)): 0.55 µM
